# Measured values: patent US8927500B2, “Peptidomimetic macrocycles” (Aileron Therapeutics, Inc., priority 2012, dated 2015)
# System: RKO cells
# Experiment: Cell viability assay (MTT), RKO
# Conditions: read-out: RKO EC50 (72 h)
row,SMILES,EC50 [µM]
1,CC(=O)N[C@@H](CC(C)C)C(=O)N[C@H](C(=O)N[C@@H](Cc1ccccc1)C(=O)N[C@]1(C)CCCCCC/C=C/CCC[C@@](C)(C(=O)N[C@@H](CO)C(=O)N[C@@H](C)C(=O)N[C@@H](C)C(N)=O)NC(=O)[C@H](CCC(C)C)NC(=O)[C@H](CCC(N)=O)NC(=O)[C@H](C)NC(=O)[C@H](Cc2c[nH]c3ccccc23)NC(=O)[C@H](Cc2ccc(O)cc2)NC(=O)[C@H](C)NC1=O)[C@@H](C)O [compound 115],5 to 15
2,"CCCC[C@H](NC(=O)[C@H](C)NC(=O)[C@H](C)NC(=O)[C@]1(C)CCCC=CCCCCCC[C@@](C)(NC(=O)[C@H](Cc2ccccc2)NC(=O)[C@@H](NC(=O)[C@H](CC(C)C)NC(C)=O)[C@@H](C)O)C(=O)N[C@@H](C)C(=O)N[C@@H](Cc2ccc(O)cc2)C(=O)N(C)[C@@H](Cc2c[nH]c3ccccc23)C(=O)N[C@@H](C)C(=O)N[C@@H](CCC(N)=O)C(=O)N[C@@H](CC(C)C)C(=O)N1)C(=O)N[C@@H](C)C(N)=O (single isomer, unassigned) [compound 386]",< 5
3,CC(=O)N[C@@H](CCC(=O)O)C(=O)N[C@H](C(=O)N[C@@H](Cc1ccccc1)C(=O)N[C@]1(C)CCCCCCC=CCCC[C@@](C)(C(=O)N[C@@H](CO)C(=O)N[C@@H](C)C(=O)N[C@@H](C)C(N)=O)NC(=O)[C@H](CC(C)C)NC(=O)[C@H](CCC(N)=O)NC(=O)[C@H](C)NC(=O)[C@H](Cc2c[nH]c3ccccc23)NC(=O)[C@H](Cc2ccc(O)cc2)NC(=O)[C@H](C(C)C)NC1=O)[C@@H](C)O [compound 125],5 to 15
4,CC(=O)N[C@@H](CC(C)C)C(=O)N[C@H](C(=O)N[C@@H](Cc1ccccc1)C(=O)N[C@]1(C)CCCCCCC=CCCC[C@@](C)(C(=O)N[C@@H](CO)C(=O)N[C@@H](C)C(=O)N[C@@H](C)C(N)=O)NC(=O)[C@H](CC(C)C)NC(=O)[C@H](C)NC(=O)[C@H](C(C)C)NC(=O)[C@H](Cc2c[nH]c3ccccc23)NC(=O)[C@H](Cc2ccc(O)cc2)NC(=O)[C@H](C)NC1=O)[C@@H](C)O [compound 196],< 5
5,"CC(=O)N[C@@H](CC(C)C)C(=O)N[C@H](C(=O)N[C@@H](Cc1ccccc1)C(=O)N[C@]1(C)CCCCCCC=CCCC[C@@](C)(C(=O)N[C@@H](CO)C(=O)N[C@@H](C)C(=O)N[C@@H](C)C(=O)N[C@H](C)C(N)=O)NC(=O)[C@H](CC2CCC2)NC(=O)[C@H](CCC(N)=O)NC(=O)[C@H](C)NC(=O)[C@H](Cc2c[nH]c3ccccc23)NC(=O)[C@H](Cc2ccc(O)cc2)NC(=O)[C@H](CCC(=O)O)NC1=O)[C@@H](C)O (single isomer, unassigned) [compound 353]",15 to 30
6,CSCC[C@H](NC(=O)[C@H](C)NC(=O)[C@H](CO)NC(=O)[C@]1(C)CCCC=CCCCCCC[C@@](C)(NC(=O)[C@H](Cc2ccccc2)NC(=O)[C@@H](NC(=O)[C@H](CC(C)C)NC(C)=O)[C@@H](C)O)C(=O)N[C@@H](C)C(=O)N[C@@H](Cc2ccc(O)cc2)C(=O)N[C@@H](Cc2c[nH]c3ccccc23)C(=O)N[C@@H](C)C(=O)N[C@@H](CCC(N)=O)C(=O)N[C@@H](CC(C)C)C(=O)N1)C(N)=O [compound 5],< 5
7,CC(=O)N[C@@H](CC(C)C)C(=O)N[C@H](C(=O)N[C@@H](Cc1ccccc1)C(=O)N[C@]1(C)CCCCCCCCCCC[C@@](C)(C(=O)N[C@@H](C)C(=O)N[C@@H](C)C(=O)N[C@@H](C)C(=O)N[C@@H](C)C(=O)N[C@@H](C)C(=O)N[C@H](C)C(N)=O)NC(=O)[C@H](CC(C)C)NC(=O)[C@H](CCC(N)=O)NC(=O)[C@H](C)NC(=O)[C@H](Cc2c[nH]c3ccccc23)NC(=O)[C@H](Cc2ccc(O)cc2)NC(=O)[C@H](CCC(=O)O)NC1=O)[C@@H](C)O [compound 445],5 to 15
8,CC(=O)N[C@@H](CCC(=O)O)C(=O)N[C@H](C(=O)N[C@@H](Cc1ccccc1)C(=O)N[C@]1(C)CCCCCCC=CCCC[C@@](C)(C(=O)N[C@@H](CO)C(=O)N[C@@H](C)C(=O)N[C@@H](C)C(N)=O)NC(=O)[C@H](CC(C)C)NC(=O)[C@H](CCC(N)=O)NC(=O)[C@H](C)NC(=O)[C@H](Cc2c[nH]c3ccccc23)NC(=O)[C@H](Cc2ccc(O)cc2)NC(=O)[C@H](CCC(=O)O)NC1=O)[C@@H](C)O [compound 161],> 30
9,CC(=O)N[C@@H](CC(C)C)C(=O)N[C@H](C(=O)N[C@@H](Cc1ccccc1)C(=O)N[C@]1(C)CCCCCCC=CCCC[C@@](C)(C(=O)N[C@@H](CO)C(=O)N[C@@H](C)C(=O)N[C@@H](Cc2ccccc2)C(N)=O)NC(=O)[C@H](CC(C)C)NC(=O)[C@H](CCC(N)=O)NC(=O)[C@H](C)NC(=O)[C@H](Cc2c[nH]c3ccccc23)NC(=O)[C@H](Cc2ccc(O)cc2)NC(=O)[C@H](C)NC1=O)[C@@H](C)O [compound 7],< 5
10,"CC(=O)N[C@@H](CC(C)C)C(=O)N[C@H](C(=O)N[C@@H](Cc1ccccc1)C(=O)N[C@]1(C)CCCCCCC=CCCC[C@@](C)(C(=O)N[C@@H](CO)C(=O)N[C@@H](CC(C)C)C(=O)N[C@@H](C)C(N)=O)NC(=O)[C@H](CC(C)C)NC(=O)[C@H](CCC(N)=O)NC(=O)[C@H](C)NC(=O)[C@H](Cc2c[nH]c3ccccc23)NC(=O)[C@H](Cc2ccc(O)cc2)NC(=O)[C@H](C)NC1=O)[C@@H](C)O (single isomer, unassigned) [compound 118]",< 5
11,CCCC[C@H](NC(=O)[C@H](C)NC(=O)[C@H](C)NC(=O)[C@]1(C)CCC/C=C/CCCCCC[C@@](C)(NC(=O)[C@H](Cc2ccccc2)NC(=O)[C@@H](NC(=O)[C@H](CC(C)C)NC(C)=O)[C@@H](C)O)C(=O)N[C@@H](C)C(=O)N[C@@H](Cc2ccc(O)cc2)C(=O)N[C@@](C)(Cc2c[nH]c3ccccc23)C(=O)N[C@@H](C)C(=O)N[C@@H](CCC(N)=O)C(=O)N[C@@H](CC(C)C)C(=O)N1)C(=O)N[C@@H](C)C(N)=O [compound 388],15 to 30
12,CC(=O)N[C@@H](CC(C)C)C(=O)N[C@H](C(=O)N[C@@H](Cc1ccccc1)C(=O)N[C@]1(C)CCCCCC/C=C/CCC[C@@](C)(C(=O)N[C@@H](C)C(=O)N[C@@H](C)C(=O)N[C@@H](C)C(=O)N[C@@H](C)C(=O)N[C@@H](C)C(=O)N[C@H](C)C(N)=O)NC(=O)[C@H](CC2CCC2)NC(=O)[C@H](CCC(N)=O)NC(=O)[C@H](C)NC(=O)[C@H](Cc2c[nH]c3ccccc23)NC(=O)[C@H](Cc2ccc(C(=O)O)cc2)NC(=O)[C@H](CCC(=O)O)NC1=O)[C@@H](C)O [compound 349],5 to 15
13,CC(=O)N[C@@H](CC(C)C)C(=O)N[C@H](C(=O)N[C@@H](Cc1ccccc1)C(=O)N[C@]1(C)CCCCCCC=CCCC[C@@](C)(C(=O)N[C@@H](CO)C(=O)N[C@@H](C)C(=O)N[C@@H](CO)C(N)=O)NC(=O)[C@H](CC(C)C)NC(=O)[C@H](CCC(N)=O)NC(=O)[C@H](C)NC(=O)[C@H](Cc2c[nH]c3ccccc23)NC(=O)[C@H](Cc2ccc(O)cc2)NC(=O)[C@H](C)NC1=O)[C@@H](C)O [compound 122],5 to 15
14,CC(=O)N[C@@H](CC(C)C)C(=O)N[C@H](C(=O)N[C@@H](Cc1ccccc1)C(=O)N[C@]1(C)CCCCCCC=CCCC[C@@](C)(C(=O)N[C@@H](CO)C(=O)N[C@@H](C)C(=O)NC(C)(C)C(N)=O)NC(=O)[C@H](CC(C)C)NC(=O)[C@H](CCC(N)=O)NC(=O)[C@H](C)NC(=O)[C@H](Cc2c[nH]c3ccccc23)NC(=O)[C@H](Cc2ccc(O)cc2)NC(=O)[C@H](C)NC1=O)[C@@H](C)O [compound 10],5 to 15
15,CC(=O)N[C@@H](CC(C)C)C(=O)N[C@H](C(=O)N[C@@H](Cc1ccccc1)C(=O)N[C@]1(C)CCCCCC/C=C/CCC[C@@](C)(C(=O)N[C@@H](CO)C(=O)N[C@@H](C)C(=O)N[C@@H](C)C(N)=O)NC(=O)[C@H](CC(C)C)NC(=O)[C@H](CCC(N)=O)NC(=O)[C@H](C)NC(=O)[C@H](Cc2c[nH]c3cc(Cl)ccc23)NC(=O)[C@H](Cc2ccc(O)cc2)NC(=O)[C@H](C)NC1=O)[C@@H](C)O [compound 99],< 5
16,CC[C@H](C)[C@H](NC(=O)[C@H](C)NC(=O)[C@H](C)NC(=O)[C@]1(C)CCC/C=C/CCCCCC[C@@](C)(NC(=O)[C@H](Cc2ccccc2)NC(=O)[C@@H](NC(=O)[C@H](CC(C)C)NC(C)=O)[C@@H](C)O)C(=O)N[C@@H](CCC(=O)O)C(=O)N[C@@H](Cc2ccc(C(=O)O)cc2)C(=O)N[C@@H](Cc2c[nH]c3ccccc23)C(=O)N[C@@H](C)C(=O)N[C@@H](CCC(N)=O)C(=O)N[C@@H](CC2CCC2)C(=O)N1)C(=O)N[C@H](C)C(N)=O [compound 249],< 5
17,CC(=O)N[C@@H](CCC(=O)O)C(=O)N[C@H](C(=O)N[C@@H](Cc1ccccc1)C(=O)N[C@]1(C)CCCCCCC=CCCC[C@@](C)(C(=O)N[C@@H](CO)C(=O)N[C@H](C(=O)N[C@@H](C)C(N)=O)C(C)C)NC(=O)[C@H](CC(C)C)NC(=O)[C@H](CCC(N)=O)NC(=O)[C@H](C)NC(=O)[C@H](Cc2c[nH]c3ccccc23)NC(=O)[C@H](Cc2ccc(O)cc2)NC(=O)[C@H](C(C)C)NC1=O)[C@@H](C)O [compound 126],> 30
18,"CC(=O)N[C@@H](CC(C)C)C(=O)N[C@H](C(=O)N[C@@H](Cc1ccccc1)C(=O)N[C@]1(C)CCCCCCC=CCCC[C@@](C)(C(=O)N[C@@H](CO)C(=O)N[C@@H](C)C(=O)N[C@@H](C)C(N)=O)NC(=O)[C@H](C2CCCC2)NC(=O)[C@H](CCC(N)=O)NC(=O)[C@H](C)NC(=O)[C@H](Cc2c[nH]c3ccccc23)NC(=O)[C@H](Cc2ccc(O)cc2)NC(=O)[C@H](CCC(=O)O)NC1=O)[C@@H](C)O (single isomer, unassigned) [compound 150]",15 to 30
19,CC(=O)N[C@@H](CC(C)C)C(=O)N[C@H](C(=O)N[C@@H](Cc1ccc(F)c(F)c1)C(=O)N[C@]1(C)CCCCCC/C=C/CCC[C@@](C)(C(=O)N[C@@H](CO)C(=O)N[C@@H](C)C(=O)N[C@@H](C)C(N)=O)NC(=O)[C@H](CCC(C)C)NC(=O)[C@H](CCC(N)=O)NC(=O)[C@H](C)NC(=O)[C@H](Cc2c[nH]c3ccccc23)NC(=O)[C@H](Cc2ccc(O)cc2)NC(=O)[C@H](CCC(=O)O)NC1=O)[C@@H](C)O [compound 160],> 30
20,"CCCC[C@H](NC(=O)[C@H](C)NC(=O)[C@H](C)NC(=O)[C@]1(C)CCCC=CCCCCCC[C@@](C)(NC(=O)[C@H](Cc2ccccc2)NC(=O)[C@@H](NC(=O)[C@H](CC(C)C)NC(=O)CN(C)C)[C@@H](C)O)C(=O)N[C@@H](C)C(=O)N[C@@H](Cc2ccc(O)cc2)C(=O)N[C@@H](Cc2c[nH]c3ccccc23)C(=O)N[C@@H](C)C(=O)N[C@@H](CCC(N)=O)C(=O)N[C@@H](CC(C)C)C(=O)N1)C(=O)N[C@@H](C)C(N)=O (single isomer, unassigned) [compound 442]",< 5
